Earlier results on one compound are cited in PMC3858179 (2008).

The series has as its target T1, T. gondii DHFR (Toxoplasma gondii, UniProt Q07422).
T1 sequence (Q07422 1-610): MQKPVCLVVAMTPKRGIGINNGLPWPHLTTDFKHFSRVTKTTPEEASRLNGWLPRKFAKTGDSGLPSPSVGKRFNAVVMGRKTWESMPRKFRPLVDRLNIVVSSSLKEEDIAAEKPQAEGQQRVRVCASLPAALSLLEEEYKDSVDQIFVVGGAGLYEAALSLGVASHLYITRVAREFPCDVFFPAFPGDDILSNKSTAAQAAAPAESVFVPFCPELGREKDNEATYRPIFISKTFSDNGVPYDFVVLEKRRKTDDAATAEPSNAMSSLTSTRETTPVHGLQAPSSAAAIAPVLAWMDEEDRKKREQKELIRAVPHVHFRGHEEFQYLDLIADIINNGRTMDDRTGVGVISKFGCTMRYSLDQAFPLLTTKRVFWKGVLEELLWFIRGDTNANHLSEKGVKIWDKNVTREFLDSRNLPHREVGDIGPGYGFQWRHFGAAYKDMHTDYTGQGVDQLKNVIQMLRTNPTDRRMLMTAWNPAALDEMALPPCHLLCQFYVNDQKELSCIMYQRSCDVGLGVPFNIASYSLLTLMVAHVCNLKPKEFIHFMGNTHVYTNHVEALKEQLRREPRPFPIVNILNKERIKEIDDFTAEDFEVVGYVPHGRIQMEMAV
Conditions: cited from earlier work.

Turning to `COc1ccc(OC)c(Sc2[nH]c3nc(N)nc(N)c3c2C)c1` [Compound 6], the “fold more potent than 10 (T. gondii DHFR)” value was 19 fold and the “fold more potent than TMP against T. gondii DHFR” value is 16 fold.
